From BindingDB's records for doi:10.1021/cb400150c (The University of Tokyo, 2013)

biological target: T1, Ectonucleotide pyrophosphatase/phosphodiesterase family member 2 (Mus musculus, UniProt Q9R1E6); experiment: ATX Inhibitory Selectivity Test
Method: Inhibitory activities of hit compounds towards ENPP1-5 were calculated using pNP-TMP, and the inhibitory activities of hit compounds towards ENPP6 and 7 were calculated using pNPPC. The final concentration of these two absorption-based substrates was 100uM. Assay buffer (ENPP buffer, 37uL) and 500uM PNP-TMP or pNPPC (20uL) were dispensed into the 96-well microplate. 30uM samples (33uL) were added, followed by ENPP1-7 solution (10uL) into each well. Each well contained a total of 100uL. The plate was incubated for 2 hours and aborbance (405nm) was measured with a microplate reader.

Point of comparison: `CN1CCN(C2=NC(=O)/C(=C/c3ccc(Cl)cc3Cl)S2)CC1` [Disubstituted aryl-Me ATX inhibitor 2], IC50 3 µM. Against it:
- CN1CCN(C2=NC(=O)/C(=C/c3ccc(F)c(F)c3)S2)CC1 [Disubstituted aryl-Me ATX inhibitor 1] — within 1.5-fold, 4.2 µM
- CN1CCN(C2=NC(=O)/C(=C/c3c(Cl)cccc3Cl)S2)CC1 [Disubstituted aryl-Me ATX inhibitor 5] — 3.7-fold higher, 11 µM
- CN1CCN(C2=NC(=O)/C(=C/c3ccc(Br)c(Br)c3)S2)CC1 [Disubstituted aryl-Me ATX inhibitor 6] — 15-fold lower, 0.2 µM
- CN1CCN(C2=NC(=O)/C(=C/c3cc(C(C)(C)C)cc(C(C)(C)C)c3)S2)CC1 [Disubstituted aryl-Me ATX inhibitor 8] — 67-fold lower, 0.045 µM
- CN1CCN(C2=NC(=O)/C(=C/c3ccc(F)cc3)S2)CC1 [Monosubstituted aryl-Me ATX inhibitor 2] — 5.3-fold higher, 16 µM
- CN1CCN(C2=NC(=O)/C(=C/c3ccccc3Cl)S2)CC1 [Monosubstituted aryl-Me ATX inhibitor 3] — 6.7-fold higher, 20 µM
- CN1CCN(C2=NC(=O)/C(=C/c3ccc(Br)cc3)S2)CC1 [Monosubstituted aryl-Me ATX inhibitor 6] — 6.7-fold lower, 0.45 µM
- CN1CCN(C2=NC(=O)/C(=C/c3ccc(I)cc3)S2)CC1 [Monosubstituted aryl-Me ATX inhibitor 7] — 18-fold lower, 0.17 µM
- Cc1ccc(/C=C2\SC(N3CCN(C)CC3)=NC2=O)cc1 [Monosubstituted aryl-Me ATX inhibitor 8] — 2.1-fold lower, 1.4 µM
- CN1CCN(C2=NC(=O)/C(=C/c3cc(C(F)(F)F)cc(C(F)(F)F)c3)S2)CC1 [Monosubstituted aryl-Me ATX inhibitor 9] — 12-fold lower, 0.26 µM
- CN1CCN(C2=NC(=O)/C(=C/c3ccc(C(F)(F)F)cc3)S2)CC1 [Monosubstituted aryl-Me ATX inhibitor 10] — 14-fold lower, 0.21 µM

biological target: T1, Ectonucleotide pyrophosphatase/phosphodiesterase family member 2; experiment: not given

Point of comparison: `Cc1nc2ccccn2c(=O)c1Cc1ccc(Cl)cc1` [ATX inhibitor 8], IC50 0.3 µM. Against it:
- COc1ccc(C(=O)/C=C/c2ccc(ON=O)cc2)cc1CSCC(=O)O [ATX inhibitor 2] — within 1.5-fold, 0.42 µM
- NS(=O)(=O)c1cc(C(=O)OCc2ncc(-c3ccc(F)cc3)o2)ccc1Cl [ATX inhibitor 3] — 1.9-fold higher, 0.56 µM
- Cc1cc(C)c(C)c(S(=O)(=O)N2CCN(C(=O)NCCCn3ccnc3)CC2)c1C [ATX inhibitor 4] — 3.7-fold higher, 1.1 µM
- NS(=O)(=O)c1ccc(Nc2nc(-c3ccc(O)c(O)c3)cs2)cc1 [ATX inhibitor 6] — 3.3-fold higher, 1 µM
- CCCCCCCN=Cc1c(O)n(-c2ccc(F)cc2)c(=O)[nH]c1=O [ATX inhibitor 7] — within 1.5-fold, 0.25 µM
- CCN1CCN(C2=NC(=O)/C(=C/c3ccc(Cl)cc3)S2)CC1 [ATX inhibitor 9] — within 1.5-fold, 0.42 µM
- O=C1N=C(N2CCNCC2)S/C1=C\c1ccc(Cl)c(Cl)c1 [ATX inhibitor 10 analogue 1] — 1.8-fold lower, 0.17 µM
- O=C1N=C(N2CCN(CCCCS(=O)(=O)O)CC2)S/C1=C\c1ccc(Cl)c(Cl)c1 [ATX inhibitor 10 analogue 3] — within 1.5-fold, 0.23 µM
- O=C1N=C(N2CCN(Cc3ccc(B(O)O)cc3)CC2)S/C1=C\c1ccc(Cl)c(Cl)c1 [ATX inhibitor 10 analogue 6] — 14-fold lower, 0.022 µM
- O=C1N=C(N2CCN(Cc3ccc(C(=O)O)cc3)CC2)S/C1=C\c1ccc(Cl)c(Cl)c1 [ATX inhibitor 10 analogue 7] — 12-fold lower, 0.025 µM
- O=C(O)CCCN1CCN(C2=NC(=O)/C(=C/c3ccc(Cl)c(Cl)c3)S2)CC1 [ATX inhibitor 10 analogue 9] — within 1.5-fold, 0.4 µM
- O=C1N=C(N2CCN(CCCS(=O)(=O)O)CC2)S/C1=C\c1ccc(Cl)c(Cl)c1 [ATX inhibitor 10 analogue 10] — within 1.5-fold, 0.42 µM
- O=C1N=C(N2CCN(Cc3cccnc3)CC2)S/C1=C\c1ccc(Cl)c(Cl)c1 [ATX inhibitor 10 analogue 13] — within 1.5-fold, 0.26 µM
- O=C1N=C(N2CCN(Cc3ccncc3)CC2)S/C1=C\c1ccc(Cl)c(Cl)c1 [ATX inhibitor 10 analogue 14] — 1.7-fold lower, 0.18 µM
- COC(=O)C1=C(N)N(c2ccc(S(N)(=O)=O)cc2)C2=C(C(=O)CCC2)C1c1ccc(OC)c(OC)c1 (stereo unspecified) [ATX inhibitor 11] — 2.2-fold higher, 0.67 µM
- C[C@]12CCC(=O)C=C1CC[C@H]1[C@@H]3CC[C@H](OC(=O)CCC(=O)NCCc4cnc[nH]4)C3CC[C@@H]12 (stereo partly specified) [ATX inhibitor 12] — 5-fold higher, 1.5 µM
- CN(C)P(=NC(=S)Nc1cccc(S(N)(=O)=O)c1)(c1ccncc1)N(C)C [ATX inhibitor 15] — 2.6-fold higher, 0.79 µM
- O=C1N=C(N2CCN(Cc3ccccc3B(O)O)CC2)S/C1=C\c1ccc(Cl)c(Cl)c1 [US8551988, 64] — 1.9-fold higher, 0.58 µM
